Source: patent US20110286981A1 (ZEALAND PHARMA A S, published 2011)

Tests used:
[1] = molecular target: human glucagon receptor (human) (UniProt P47871); assay: cell-based or functional assay
[2] = molecular target: human glucagon-like peptide 1 receptor (human) (UniProt P43220); assay: cell-based or functional assay

Exendin-4 (from UniProt P26349) (peptide)
GLUR EC50 (cAMP formation in HEK293 cells expressing human Glucagon-R) [1]: > 1000 nmol
GLP-1R EC50 (cAMP formation in HEK293 cells expressing human GLP-1-R) [2]: 0.02 nmol
